# Antibody variant affinities, Ab-14 light chain, assay B

The target is the same throughout: PDVDLGDISGINAS, from the HR2 region of SARS-CoV-2 spike.

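These sequences belong to a second round, designed from the earlier measurements on random variants of the parent. Group labels follow the data file (Ctrl: baseline library sampled from a position-specific scoring matrix, with some repeated check sequences; En: ensemble of fine-tuned language models; GP: Gaussian process model; HC: hill climbing; Gen: genetic algorithm; Gibbs: Gibbs sampling; a sequence that several methods proposed may carry one label only). In AlphaSeq, yeast of one mating type display the scFv and yeast of the other type display the target. The frequency of each diploid, read from paired DNA barcodes, reflects how well the two displayed proteins bind. The ratio of observed to expected reads was calibrated, replicate by replicate, on BCL2-family standards whose Kd was known from biolayer interferometry. There are six technical replicates.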

Parent: Ab-14, a human scFv built as VH, three GGGGS repeats, VL. Only the CDRs of the light chain vary.
VH: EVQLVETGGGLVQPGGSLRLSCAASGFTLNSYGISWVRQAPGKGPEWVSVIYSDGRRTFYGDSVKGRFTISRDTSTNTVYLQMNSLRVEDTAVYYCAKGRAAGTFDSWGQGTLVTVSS
VL: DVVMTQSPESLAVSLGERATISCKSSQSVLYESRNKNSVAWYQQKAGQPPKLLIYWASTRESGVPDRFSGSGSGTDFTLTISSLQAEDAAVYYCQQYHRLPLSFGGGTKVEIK

Variants are written as CDR1, CDR2 and CDR3 of the light chain (limits as in the source). Parent: KSSQSVLYESRNKNSVA, WASTRES, QQYHRLPLS. Kd is apparent (estimated from mating counts) and averaged on the log scale over replicates with a signal. Smaller is tighter. An entry "nd" has no value in the source: the pair was not observed among the diploids in any replicate. This suggests poor binding but is not conclusive.

CDR-L1 | CDR-L2 | CDR-L3 | group | Kd | seen in | empty controls
VLSDTIGNQYDEADNIA | DKTETSE | QQYARLPLS | En_Gibbs | 8.3 nM | 6 of 6 | 0 of 18
KSSQSVLYESRNKNIVA | WASHRES | QFYHRLPLS | Ctrl | nd | 0 of 6 | 0 of 18
KSSQSLLYESRNKNSVA | WASTRNS | QQYHRLPLS | Ctrl | 19 nM | 6 of 6 | 2 of 18
KLMQMTGIESHNKNSLA | DANRRES | QQYHRLPLS | En_HC | 2.7 nM | 6 of 6 | 1 of 18
KFSGSQLYESRNSNSVA | HASTRES | QDYHRLPLS | GP_Gibbs | 1.1 nM | 6 of 6 | 1 of 18
KFMQSWLYESRNKNSVA | NASQRES | QQYHRLPLS | GP_Gen | 980 pM | 6 of 6 | 2 of 18
KSLWSWLYESRNKNSVA | HASTREQ | QQYHRLPLS | GP_HC | 25 nM | 6 of 6 | 0 of 18
KFSQSVLYEHRTKNSVA | NASTRES | QQYHRLPLS | GP_HC | 4.2 nM | 6 of 6 | 1 of 18
HILQNMTYESRNRNSVA | HQSTRED | QQYHSLPLS | En_HC | 39 nM | 5 of 6 | 0 of 18
KFSPSGLYESRTKNSVA | NASTRES | QQYHRLPLS | GP_HC | 1.1 nM | 6 of 6 | 1 of 18
KLDPSHLGESRNKNAVA | QASTREI | QQYHRLPLS | GP_Gibbs | 850 pM | 6 of 6 | 1 of 18
KLSQSMLYESRVKNSVA | NASTRES | QQYHRLPLS | GP_Gen | 600 pM | 6 of 6 | 1 of 18
KIGQSVLMGSYVRNSVA | QQSTREN | QQYDRLPLS | En_HC | 4.8 nM | 6 of 6 | 2 of 18
HISVSVGMTSFNKNSVA | ENSTREN | QQYDRLPLS | En_HC | 14 nM | 6 of 6 | 0 of 18
KLSQSSLYESRNKNSVA | GGNTRES | QQYHRLPLS | GP_HC | 390 pM | 6 of 6 | 0 of 18
LVDQSQLYEQRMKNSVA | EASLRES | QQYHRLPLS | GP_Gibbs | 36 nM | 1 of 6 | 0 of 18
MISQVLNMATKTGNNVA | DLQEREN | QQYFRLPLS | En_Gen | 28 nM | 6 of 6 | 2 of 18
KLPLATMVEMVSKNNVA | ELSTRGS | QQYNRLPLS | En_HC | 8.0 nM | 6 of 6 | 0 of 18
KSSQSVLYESRNSNSVA | HASTRES | QQYHRLPLS | Ctrl | 3.1 nM | 6 of 6 | 1 of 18
KISQSVLYESRNKNSVA | AANTRES | QQYKRLPLS | Ctrl | 3.9 nM | 6 of 6 | 0 of 18
KLPQSNLYESRNKNSVA | QASTRES | QQYHRLPLS | GP_Gen | 880 pM | 6 of 6 | 3 of 18
TLVQSVMGGSRTKNSIA | NAETRYD | QHYHRLPLS | En_HC | 4.9 nM | 6 of 6 | 3 of 18
HISMSMNWLTRNKNSIA | EESTRED | QQYHRLPLS | En_HC | 930 pM | 6 of 6 | 5 of 18
KISQSVLYESRNSNAVA | EASTRES | QDYHRLPLS | GP_Gibbs | 1.7 nM | 6 of 6 | 0 of 18
KLSQSDLYESRNKNNVA | DASTRES | QQYHRLPLS | GP_Gen | 710 pM | 6 of 6 | 1 of 18
HIGQSMLGENVKARSVA | HMNTRED | QQYDRLPLS | En_Gen | 1.3 nM | 6 of 6 | 0 of 18
QLSMITGHQSMIKNNVA | EMETREN | QQYDRLPLA | En_Gen | 2.8 nM | 6 of 6 | 0 of 18
TLTGVMDMTSKNVNSVA | DLTTRGN | QQYHRLPLS | En_HC | 3.6 nM | 6 of 6 | 1 of 18
QLSESAHFESRKKNSVA | ENSTRES | QQYDHLPLS | En_HC | 28 nM | 6 of 6 | 6 of 18
KSHQSVLYVSRNTNSVA | WASTRES | QQYHRLPLD | Ctrl | nd | 0 of 6 | 0 of 18
KSSQSYLYESGNKNSVA | EASTRES | QQYHRLPLS | GP_HC | 9.3 nM | 6 of 6 | 1 of 18
RLSLEHTGYWEMMNSIA | QASTKAF | QQYDRLPLH | En_Gibbs | 110 nM | 6 of 6 | 1 of 18
KSDQSDLYESRNKNSVA | WASTRES | FQYHREPLS | Ctrl | 260 nM | 2 of 6 | 0 of 18
KSSQSVLYESRNKNSVA | WASMRES | QQYHRLPES | Ctrl | 410 nM | 5 of 6 | 2 of 18
KSSQSVLYEDRNKNSVA | GASTRES | QQYHRLPLS | Ctrl | 1.4 nM | 6 of 6 | 1 of 18
KSSISVLYESGNKNSVA | HASTRED | QQYHRLPLS | GP_HC | 13 nM | 6 of 6 | 0 of 18
SISGFMKSLSAHINNVA | DMTNRED | QQYDKLPLS | En_Gen | 2.1 nM | 6 of 6 | 0 of 18
KSSTSQEYEDRNKNSVA | HASTRLQ | QQYHRLPLS | GP_Gibbs | 1.2 nM | 6 of 6 | 0 of 18
KVMQSKLYESRQKNSVA | NASQREL | QQYHRLPLS | GP_Gibbs | 1.1 nM | 6 of 6 | 0 of 18
KFSQSELYESRNKNSVA | NASTRCS | QQYHRLPLS | GP_Gen | 1.1 nM | 6 of 6 | 1 of 18
MISQVLNMATKTGNNVA | DLEERED | QQYFRLPLS | En_Gen | 23 nM | 4 of 6 | 0 of 18
HLKQVLNGVNKKSNSVA | HMNTREE | QQYDRLPLV | En_Gen | 8.4 nM | 6 of 6 | 0 of 18
KVSQSFLYESRNKNSVA | EASTRES | QDYHRLPLS | GP_Gen | 910 pM | 6 of 6 | 2 of 18
QSSQSELYESRNKNSVA | GASTRES | QQYHRLTLS | GP_HC | 390 pM | 6 of 6 | 0 of 18
KSSESVLYESRNKNSVA | SADTRES | QQYIRLPLS | Ctrl | 1.5 nM | 6 of 6 | 0 of 18
KLQQSVHYESRNKNSVA | NASTRLS | QQYHRLPLS | GP_Gen | 1.8 nM | 6 of 6 | 0 of 18
KSYQSVLYESRNKNSVA | HASTRED | QQYHQLPLS | GP_HC | 1.6 nM | 6 of 6 | 0 of 18
ILSQSVLMGMHTKQNVA | QATMRFN | QQYHRLPFM | En_HC | 20 nM | 6 of 6 | 1 of 18
HSSPSVEMESRNKNSVA | NASTRES | QQYHRLPLS | GP_HC | 550 pM | 6 of 6 | 0 of 18
KISQSVLYESNNKNSVA | DAGWRES | QQYHRLPLS | Ctrl | 1.2 nM | 6 of 6 | 1 of 18
QLSISMLHESINKHSVA | EVRTRES | QQYDRLPLS | En_HC | 7.1 nM | 6 of 6 | 1 of 18
TISQMWLGESRNRNSVA | QTSTRES | QSYDRLPLS | En_HC | 4.5 nM | 6 of 6 | 2 of 18
KSSQSILYESVNKNSVA | HASTRED | QQYHRLPLS | GP_HC | 1.3 nM | 6 of 6 | 0 of 18
KVSQSVLYEQRMKQSVA | NASERES | QQYHRLPLS | GP_Gibbs | 2.3 nM | 6 of 6 | 0 of 18
VSSQSVLYEERNKNSVA | WASTRES | QQYHRLPLS | Ctrl | 340 nM | 3 of 6 | 2 of 18
KLNEYKHETEEKTQNIA | DQTIREP | QQYAHLPLS | En_Gibbs | 3.4 nM | 6 of 6 | 0 of 18
KLRQSTNYESRNQNSVA | WASTRES | QQYHRLPLS | GP_HC | 7.5 nM | 6 of 6 | 2 of 18
NVDISENVNYNHKAAVA | GHDERVG | QQYSRLPLS | En_Gibbs | 1.3 nM | 6 of 6 | 1 of 18
KMSQSVLYESRNKNSVA | NASTRMS | QQYHRLPLS | GP_Gen | 2.7 nM | 6 of 6 | 3 of 18
MISQLMNMGQFAINSVA | QASIRNS | QQYDRLPLI | En_Gen | 5.9 nM | 6 of 6 | 4 of 18
KLPQSHLYESRNKNSVA | QASTRES | QQYHRLPLS | GP_Gen | 1.2 nM | 6 of 6 | 0 of 18
KSSQSVLYESRNKNSVA | AASIREI | QQYHRLPLS | Ctrl | 3.4 nM | 6 of 6 | 1 of 18
KSQQSVLYESRRKNSVA | WASQRES | QQYHRLPLS | Ctrl | 740 nM | 4 of 6 | 0 of 18
TISQSWFIEQRNKNNVA | EMSTREN | QDYDRLPLS | En_HC | 1.2 nM | 6 of 6 | 2 of 18
MLGESYGNMVQKKSSIA | DNSTREA | QQYDRLPLS | En_Gen | 39 nM | 6 of 6 | 1 of 18

The first 6 entries again:

| CDR-L1 | CDR-L2 | CDR-L3 | group | Kd | seen in | empty controls |
|---|---|---|---|---|---|---|
| VLSDTIGNQYDEADNIA | DKTETSE | QQYARLPLS | En_Gibbs | 8.3 nM | 6 of 6 | 0 of 18 |
| KSSQSVLYESRNKNIVA | WASHRES | QFYHRLPLS | Ctrl | nd | 0 of 6 | 0 of 18 |
| KSSQSLLYESRNKNSVA | WASTRNS | QQYHRLPLS | Ctrl | 19 nM | 6 of 6 | 2 of 18 |
| KLMQMTGIESHNKNSLA | DANRRES | QQYHRLPLS | En_HC | 2.7 nM | 6 of 6 | 1 of 18 |
| KFSGSQLYESRNSNSVA | HASTRES | QDYHRLPLS | GP_Gibbs | 1.1 nM | 6 of 6 | 1 of 18 |
| KFMQSWLYESRNKNSVA | NASQRES | QQYHRLPLS | GP_Gen | 980 pM | 6 of 6 | 2 of 18 |

The authors' rule: three or more of the six replicates give a measured affinity, fewer mean a poor binder. A sequence measured in both rounds can read differently, since the two assays cover different ranges. Empty control strains, which show no peptide, gave a signal in 4% of pairings with all light chain designs; the median was 430 nM and 95% of these signals were weaker than 38 nM. No background was subtracted. For each scFv, signals with the empty controls are counted beside the result.

The measurements come from Li et al. 2023 (doi:10.1038/s41467-023-39022-2) through the FLAb antibody collection.